Data from ChEMBL document CHEMBL6182870, “Synthesis and biological activity of 1H-pyrrolo[3,2-g]isoquinolines as Haspin kinase inhibitors” (Bioorg Med Chem, 2025).

What was measured:
[1] = Selectivity index, ratio of IC50 for inhibition of recombinant mouse CLK1 extracted from bacteria using GRSRSRSRSRSR as substrate to IC50 for inhibition of human haspin kinase domain (470 to 798 residues) extracted from bacteria using histone H3 (1 to 21) peptide as substrate
Homo sapiens = organism: Homo sapiens; assay: Selectivity index, ratio of IC50 for inhibition of recombinant human PIM-1 extracted from bacteria using histone H1 as substrate to IC50 for inhibition of human haspin kinase domain (470 to 798 residues) extracted from bacteria using histone H3 (1 to 21) peptide as substrate

Compound: Cn1cc(-c2cccnc2)c2cc3ccncc3cc21
- Ratio IC50 [1]: 5.6

Compound: c1cncc(-c2c[nH]c3cc4cnccc4cc23)c1
- Ratio IC50 (Homo sapiens): 3.7
